Laboratory results from patent publication US12187727B2, “Methods for antagonizing a melanocortin 4 receptor” (Pfizer Inc., priority 2020, dated 2025).

Sequences of proteins named here, by UniProt entry; tags and fusion partners are left off.
UniProt P32245, whole entry: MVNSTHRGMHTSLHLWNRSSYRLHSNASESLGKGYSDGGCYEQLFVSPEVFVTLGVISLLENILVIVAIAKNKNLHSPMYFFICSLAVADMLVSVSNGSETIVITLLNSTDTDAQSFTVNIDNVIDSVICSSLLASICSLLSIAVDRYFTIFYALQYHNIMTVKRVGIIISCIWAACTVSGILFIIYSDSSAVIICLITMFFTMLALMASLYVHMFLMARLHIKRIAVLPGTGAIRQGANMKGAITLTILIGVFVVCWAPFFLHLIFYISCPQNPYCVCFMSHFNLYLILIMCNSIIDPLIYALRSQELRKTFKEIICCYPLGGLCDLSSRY

Biological target: human Melanocortin-4 receptor (MC4R) (Homo sapiens (Human), UniProt P32245)
Assay: Functional in vitro MC4R antagonist potency assay (cAMP HTRF in CHO cells)
Type: cell-based
Procedure: Example BB. Functional In Vitro MC4R Antagonist Potency Assay
The functional in vitro antagonist potency for test compounds was determined by monitoring intracellular cyclic adenosine monophosphate (cAMP) levels in Chinese hamster ovary (CHO—) cells stably expressing the human Melanocortin-4 receptor (MC4R). Following agonist activation, human MC4R associates with the G-protein complex causing the Gα subunit to exchange bound GDP for GTP, followed by dissociation of the Ga-GTP complex. The activated Gα subunit can couple to downstream effectors to regulate the levels of second messengers or cAMP within the cell. Thereby, determination of intracellular cAMP levels allows for pharmacological characterization. Intracellular cAMP levels are quantitated using a homogenous assay utilizing the Homogeneous Time-Resolved Fluorescence (HTRF) technology from CisBio. The method is a competitive immunoassay between native cAMP produced by cells and the cAMP labelled with the acceptor dye, d2. […]
(95% O2: 5% CO2) overnight, with micro-clime lids (Labcyte, Cat No. LLS-0310). […] Intracellular cAMP levels were quantified as per Cisbio's protocol (5 uL of D2 and then 5 uL Cryptate, incubated for 1-2 hours at room temperature).
Data expressed as nM cAMP were then normalized to control wells using Activity Base (IDBS). […]

Row | Compound | Kb [nM]
1 | COc1cc([C@@H](C)C(=O)N2CC[C@@]3(CCc4cc(-c5ncccn5)c(C)nc4N3)C2)c(F)cn1 [Example 14, (2R)-2-(5-Fluoro-2-methoxypyridin-4-yl)-1-[(2S)-7-methyl-6-(pyrimidin-2-yl)-3,4-dihydro-1H-spiro[1,8-naphthyridine-2,3′-pyrrolidin]-1′-yl]propan-1-one] | 0.72
2 | COc1cc([C@@H](C)C(=O)N2CC[C@@]3(CCc4cc(-c5ncccn5)c(C)nc4N3)C2)c(Cl)cn1 [Example 15, (2R)-2-(5-Chloro-2-methoxypyridin-4-yl)-1-[(2S)-7-methyl-6-(pyrimidin-2-yl)-3,4-dihydro-1H-spiro[1,8-naphthyridine-2,3′-pyrrolidin]-1′-yl]propan-1-one] | 0.051
